## Measured affinities in a library of Ab-14 heavy chain variants

Data: MIT Lincoln Laboratory AlphaSeq set, Engelhart et al. 2022, doi:10.1038/s41597-022-01779-4, as distributed in FLAb.

Antigen: PDVDLGDISGINAS, a 14-residue peptide of the SARS-CoV-2 spike HR2 region.

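The parent was found by panning a naive human phage display library on the peptide. Library AAYL49 holds single substitutions and randomly drawn double and triple substitutions in the CDRs. The scFvs were displayed on barcoded MATa yeast, the peptide on MATalpha yeast. Pairs that bind mate more often; barcode pairs of the diploids are counted by sequencing. The ratio of observed to expected reads was calibrated, replicate by replicate, on BCL2-family standards whose Kd was known from biolayer interferometry. Mating was done three times.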

Parent scFv Ab-14: VH joined to VL by a (GGGGS)3 linker. Changes lie in the heavy chain CDRs alone.
VH: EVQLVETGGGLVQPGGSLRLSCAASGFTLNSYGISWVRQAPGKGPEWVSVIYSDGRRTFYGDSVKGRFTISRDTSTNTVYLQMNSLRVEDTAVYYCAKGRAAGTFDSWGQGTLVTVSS
VL: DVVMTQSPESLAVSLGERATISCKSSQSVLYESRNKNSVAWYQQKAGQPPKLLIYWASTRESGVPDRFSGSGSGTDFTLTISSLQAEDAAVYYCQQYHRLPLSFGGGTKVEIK

Substitutions are numbered in sequence along the VH above, starting at 1 (not Kabat). Values are log10 of the apparent Kd in nM; lower means stronger binding. A mean of the replicates is given; it leaves out those without a signal. "nd" means that the variant was in the library but no mating with the target was seen in that replicate; the authors take this as a sign of poor binding, and no number exists. In this assay the parent's reference entry averaged 0.65; its copy inside this library read 4.11 (one replicate of three). Nonspecific signal, from three strains lacking the peptide, appeared in 15% of pairings of library AAYL49, centred on 4.06 (5% of these signals below 2.83); values are not corrected for it. Also given: how often the same scFv was detected with the empty control strains, with their mean in brackets.

| # | changes | replicates, log10 nM | log10 Kd (nM), mean | empty controls |
|---|---|---|---|---|
| 1 | Y32P+G33D+D62I | nd / nd / nd | nd | 0/9 |
| 2 | F27K+R57H+G99D | nd / nd / nd | nd | 0/9 |
| 3 | G26L+G33W+S107H | nd / nd / nd | nd | 2/9 (5.17) |
| 4 | L29M+Y52Q+G55Y | nd / nd / nd | nd | 3/9 (3.65) |
| 5 | I51P+R57I+G61D | nd / 5.13 / nd | 5.13 | 3/9 (4.11) |
| 6 | V50R+G99F+G103T | nd / 4.59 / 3.94 | 4.26 | 4/9 (4.16) |
| 7 | V50G+D54N+R57N | nd / nd / nd | nd | 0/9 |
| 8 | G26S+T28W+G33V | nd / 3.18 / nd | 3.18 | 0/9 |
| 9 | I51D+G55W+A102F | nd / nd / 4.63 | 4.63 | 2/9 (4.49) |
| 10 | S35I+D62G+V64I | nd / nd / 5.56 | 5.56 | 2/9 (4.43) |
| 11 | G26L+F27K+V50H | 4.86 / nd / nd | 4.86 | 5/9 (4.06) |
| 12 | A101Q+S107V | 0.47 / 0.79 / 0.73 | 0.66 | 0/9 |
| 13 | G26C+G55A+R56G | nd / nd / nd | nd | 0/9 |
| 14 | Y32N+R100W+A101D | nd / nd / nd | nd | 0/9 |
| 15 | N30R+Y32M | nd / nd / nd | nd | 0/9 |
| 16 | G26E+L29S+S63E | nd / nd / nd | nd | 0/9 |
| 17 | I34V+F105E | 0.67 / 0.78 / 0.90 | 0.78 | 1/9 (3.60) |
| 18 | I51W+R56N | nd / nd / nd | nd | 0/9 |
| 19 | R56Q+D62T+S63F | 4.31 / 4.65 / 5.23 | 4.73 | 7/9 (4.25) |
| 20 | G33K+S53K+K65T | nd / nd / nd | nd | 1/9 (3.15) |
| 21 | F27V+D54M+G103D | nd / 2.21 / nd | 2.21 | 0/9 |
| 22 | N30P+G99H+A101W | nd / nd / nd | nd | 0/9 |
| 23 | F27Y+V50R | nd / 4.06 / nd | 4.06 | 0/9 |
| 24 | F27E+Y32S+R57G | nd / nd / nd | nd | 2/9 (3.70) |
| 25 | G26S+I51N+S107E | nd / nd / nd | nd | 1/9 (3.15) |
| 26 | Y52R+S107F | nd / nd / nd | nd | 0/9 |
| 27 | S53E+K65M+T104S | nd / 5.06 / 3.64 | 4.35 | 1/9 (4.12) |
| 28 | I34S+V50I+D62L | nd / nd / nd | nd | 0/9 |
| 29 | F27R+I51A+Y60V | nd / nd / nd | nd | 1/9 (4.26) |
| 30 | S35R+V50I+R56H | nd / nd / nd | nd | 3/9 (3.60) |
| 31 | S35E+D54F+Y60L | nd / nd / nd | nd | 1/9 (2.57) |
| 32 | G26Q+L29D | 1.69 / 1.40 / 1.65 | 1.58 | 1/9 (4.11) |
| 33 | Y32N+T58F+F59V | nd / 4.46 / 4.94 | 4.70 | 6/9 (4.49) |
| 34 | S31F+G99V+T104M | nd / nd / nd | nd | 0/9 |

Repeated from above, the 4 best binders with a signal in all replicates:

| changes | replicates, log10 nM | log10 Kd (nM), mean | empty controls |
|---|---|---|---|
| A101Q+S107V | 0.47 / 0.79 / 0.73 | 0.66 | 0/9 |
| I34V+F105E | 0.67 / 0.78 / 0.90 | 0.78 | 1/9 (3.60) |
| G26Q+L29D | 1.69 / 1.40 / 1.65 | 1.58 | 1/9 (4.11) |
| R56Q+D62T+S63F | 4.31 / 4.65 / 5.23 | 4.73 | 7/9 (4.25) |